Measurements from patent US9238656B2, “Imidazo[4,5-b]pyridine derivatives as ALK and JAK modulators for the treatment of proliferative disorders” (priority 2012, dated 2016).

The chains behind the UniProt entries cited, without tags or fusion partners. Residues count along the entry.
UniProt O60674, whole entry: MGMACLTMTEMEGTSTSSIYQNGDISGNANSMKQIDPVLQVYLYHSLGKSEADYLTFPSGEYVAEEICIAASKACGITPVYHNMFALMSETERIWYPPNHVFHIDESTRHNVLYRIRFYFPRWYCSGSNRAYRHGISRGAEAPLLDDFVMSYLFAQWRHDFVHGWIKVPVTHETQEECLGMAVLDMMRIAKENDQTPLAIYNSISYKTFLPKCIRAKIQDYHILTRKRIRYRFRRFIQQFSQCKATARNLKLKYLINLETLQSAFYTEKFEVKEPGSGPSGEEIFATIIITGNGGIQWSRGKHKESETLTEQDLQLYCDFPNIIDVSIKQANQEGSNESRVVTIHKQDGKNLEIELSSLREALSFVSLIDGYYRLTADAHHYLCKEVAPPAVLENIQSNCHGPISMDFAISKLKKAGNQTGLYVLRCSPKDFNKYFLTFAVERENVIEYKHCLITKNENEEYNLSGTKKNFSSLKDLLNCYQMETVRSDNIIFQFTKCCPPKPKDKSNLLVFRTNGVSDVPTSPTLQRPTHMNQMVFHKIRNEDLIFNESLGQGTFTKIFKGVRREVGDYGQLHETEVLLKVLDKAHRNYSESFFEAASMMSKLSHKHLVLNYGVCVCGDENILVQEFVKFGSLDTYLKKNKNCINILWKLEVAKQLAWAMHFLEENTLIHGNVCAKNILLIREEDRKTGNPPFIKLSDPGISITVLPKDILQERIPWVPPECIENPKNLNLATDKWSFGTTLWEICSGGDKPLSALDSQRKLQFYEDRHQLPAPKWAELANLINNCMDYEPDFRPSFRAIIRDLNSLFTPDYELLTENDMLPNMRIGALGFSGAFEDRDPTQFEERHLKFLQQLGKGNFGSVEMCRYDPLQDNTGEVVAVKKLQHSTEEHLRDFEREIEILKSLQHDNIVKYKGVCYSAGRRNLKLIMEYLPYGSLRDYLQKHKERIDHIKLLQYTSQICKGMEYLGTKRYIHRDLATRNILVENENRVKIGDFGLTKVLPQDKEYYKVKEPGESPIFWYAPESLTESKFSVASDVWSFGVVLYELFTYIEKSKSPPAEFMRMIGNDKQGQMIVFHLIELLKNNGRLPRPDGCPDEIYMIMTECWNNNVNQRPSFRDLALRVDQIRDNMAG
UniProt Q9UM73, 19-1620 limits assumed: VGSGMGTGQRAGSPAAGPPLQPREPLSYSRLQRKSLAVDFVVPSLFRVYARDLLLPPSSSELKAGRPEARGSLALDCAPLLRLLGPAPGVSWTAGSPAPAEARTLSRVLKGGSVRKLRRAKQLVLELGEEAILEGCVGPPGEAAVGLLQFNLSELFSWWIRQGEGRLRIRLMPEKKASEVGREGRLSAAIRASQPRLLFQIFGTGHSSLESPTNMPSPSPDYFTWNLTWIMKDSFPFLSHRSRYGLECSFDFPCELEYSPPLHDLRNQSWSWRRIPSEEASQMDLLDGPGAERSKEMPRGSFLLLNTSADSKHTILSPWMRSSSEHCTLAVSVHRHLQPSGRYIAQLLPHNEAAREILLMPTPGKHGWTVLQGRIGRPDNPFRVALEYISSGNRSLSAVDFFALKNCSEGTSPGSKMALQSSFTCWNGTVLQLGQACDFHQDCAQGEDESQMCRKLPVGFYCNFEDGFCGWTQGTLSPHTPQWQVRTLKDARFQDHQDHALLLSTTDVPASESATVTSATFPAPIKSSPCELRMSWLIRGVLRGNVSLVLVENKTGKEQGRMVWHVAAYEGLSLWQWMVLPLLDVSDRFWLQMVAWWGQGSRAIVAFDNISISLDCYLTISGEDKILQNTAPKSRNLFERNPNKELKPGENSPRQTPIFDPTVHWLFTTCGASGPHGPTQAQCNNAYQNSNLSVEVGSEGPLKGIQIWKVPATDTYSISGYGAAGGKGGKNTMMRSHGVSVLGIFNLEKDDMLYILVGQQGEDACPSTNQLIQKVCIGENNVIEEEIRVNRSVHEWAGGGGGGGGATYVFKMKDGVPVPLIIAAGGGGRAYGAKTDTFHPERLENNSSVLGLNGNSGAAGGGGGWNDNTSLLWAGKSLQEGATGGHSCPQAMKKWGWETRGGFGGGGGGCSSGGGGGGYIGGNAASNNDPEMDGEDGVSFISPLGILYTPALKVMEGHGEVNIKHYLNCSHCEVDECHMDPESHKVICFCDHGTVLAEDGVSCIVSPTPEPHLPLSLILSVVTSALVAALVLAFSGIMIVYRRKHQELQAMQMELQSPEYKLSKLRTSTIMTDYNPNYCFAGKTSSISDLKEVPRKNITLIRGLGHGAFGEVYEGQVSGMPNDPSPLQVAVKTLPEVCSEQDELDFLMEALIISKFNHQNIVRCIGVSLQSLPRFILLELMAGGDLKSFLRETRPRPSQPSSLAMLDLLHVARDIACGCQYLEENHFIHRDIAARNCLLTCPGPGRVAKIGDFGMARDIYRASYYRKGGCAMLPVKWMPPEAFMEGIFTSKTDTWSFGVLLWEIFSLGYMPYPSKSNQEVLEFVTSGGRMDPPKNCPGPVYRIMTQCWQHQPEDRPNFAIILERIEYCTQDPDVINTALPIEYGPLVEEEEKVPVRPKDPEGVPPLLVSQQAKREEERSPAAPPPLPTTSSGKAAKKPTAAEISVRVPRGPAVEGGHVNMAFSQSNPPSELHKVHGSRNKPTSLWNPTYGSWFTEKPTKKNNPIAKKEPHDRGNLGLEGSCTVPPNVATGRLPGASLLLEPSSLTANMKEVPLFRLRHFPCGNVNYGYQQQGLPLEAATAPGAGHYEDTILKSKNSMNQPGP

Tests used:
[1] = biological target: baculovirus-expressed JAK2 kinase (Homo sapiens, UniProt O60674); conditions: read-out: JAK2 Potency
[2] = biological target: baculovirus-expressed ALK (Homo sapiens, UniProt Q9UM73); experiment: ALK kinase inhibition, TRF/ELISA; format: biochemical; conditions: read-out: ALK Potency; 1 μM ATP (Km level)

**Q.** Which results are given for `COc1ncccc1-c1nc2c(N[C@H]3[C@@H](C(N)=O)[C@@H]4C=C[C@H]3C4)c(Cl)cnc2[nH]1`?
**A.** IC50 [1]: 100 to 1000 nM; IC50 [2]: < 100 nM
